Experimental findings from patent US7723329B2, “Substituted-3-sulfonylindazole derivatives as 5-hydroxytryptamine-6 ligands” (Wyeth LLC, priority 2005, dated 2010) are described below.

Protein sequences, listed by entry. Tags and fused reporters are not part of them.
UniProt P50406, whole entry: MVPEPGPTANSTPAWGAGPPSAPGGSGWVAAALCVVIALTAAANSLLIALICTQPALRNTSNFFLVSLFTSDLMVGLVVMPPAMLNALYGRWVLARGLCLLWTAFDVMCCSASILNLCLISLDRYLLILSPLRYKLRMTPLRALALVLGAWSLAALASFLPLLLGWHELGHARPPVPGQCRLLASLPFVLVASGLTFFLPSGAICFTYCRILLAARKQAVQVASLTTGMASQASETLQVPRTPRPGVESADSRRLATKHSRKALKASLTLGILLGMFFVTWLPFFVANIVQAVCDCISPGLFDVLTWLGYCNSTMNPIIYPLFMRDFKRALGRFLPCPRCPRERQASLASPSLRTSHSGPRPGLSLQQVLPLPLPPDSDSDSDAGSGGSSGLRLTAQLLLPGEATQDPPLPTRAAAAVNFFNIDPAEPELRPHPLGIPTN

SMILES strings stand for the structures. Where only a bound is given, the exact number is not on record here.

Broadly, the Ki is a dissociation constant, usually derived from enzyme kinetics or from competition with a known ligand.

The target in the assay is human cloned 5-HT6 receptors (Homo sapiens, UniProt P50406). The assay can be described thus: 5-HT6 binding affinity, [3H]-LSD displacement. The following applies: read-out: 5-HT6 Binding Ki; membranes of Hela cells expressing human cloned 5-HT6 receptors; [3H]-LSD 3.0 nM; 120 minutes at room temperature; tested form: HCl.
Regarding `CCNCCOc1cccc2c(S(=O)(=O)c3cccc4ccccc34)nn(Cc3cccc(Cl)c3)c12`, the Ki was 11 to 25 nM.

As for `CCCCNCCOc1cccc2c(S(=O)(=O)c3cccc4ccccc34)nn(Cc3cccc(Cl)c3)c12`, the Ki is over 45 nM. In the case of `O=S(=O)(c1cccc2ccccc12)c1nn(Cc2cccc(Cl)c2)c2c(OCCN3CCCC3)cccc12`, the Ki fell in the range of 11 to 25 nM.

For `CCN(CC)CCOc1cccc2c(S(=O)(=O)c3cccc4ccccc34)nn(Cc3cccc(Cl)c3)c12`, the Ki is 36 to 45 nM. The same measure for `O=S(=O)(c1cccc2ccccc12)c1nn(Cc2cccc(Cl)c2)c2c(OCCN3CCCCC3)cccc12`: 0.01 to 10 nM.
